For assay [1], the target named is T1, AChE (isolated from electric eels) (Electrophorus electricus, UniProt O42275).
T1 construct: AChE (isolated from electric eels) (type VI-S lyophilized powder); purchased Sigma-Aldrich type VI-S lyophilized powder; host or cells: isolated from electric eels
Type of assay: biochemical. To be noted: mean ± standard error.

Amino acid sequences for entries named in this document (tags omitted). A change or cut given only in a name is not applied to a line headed by its entry. Residues count along the entry.
UniProt O42275, 24-633: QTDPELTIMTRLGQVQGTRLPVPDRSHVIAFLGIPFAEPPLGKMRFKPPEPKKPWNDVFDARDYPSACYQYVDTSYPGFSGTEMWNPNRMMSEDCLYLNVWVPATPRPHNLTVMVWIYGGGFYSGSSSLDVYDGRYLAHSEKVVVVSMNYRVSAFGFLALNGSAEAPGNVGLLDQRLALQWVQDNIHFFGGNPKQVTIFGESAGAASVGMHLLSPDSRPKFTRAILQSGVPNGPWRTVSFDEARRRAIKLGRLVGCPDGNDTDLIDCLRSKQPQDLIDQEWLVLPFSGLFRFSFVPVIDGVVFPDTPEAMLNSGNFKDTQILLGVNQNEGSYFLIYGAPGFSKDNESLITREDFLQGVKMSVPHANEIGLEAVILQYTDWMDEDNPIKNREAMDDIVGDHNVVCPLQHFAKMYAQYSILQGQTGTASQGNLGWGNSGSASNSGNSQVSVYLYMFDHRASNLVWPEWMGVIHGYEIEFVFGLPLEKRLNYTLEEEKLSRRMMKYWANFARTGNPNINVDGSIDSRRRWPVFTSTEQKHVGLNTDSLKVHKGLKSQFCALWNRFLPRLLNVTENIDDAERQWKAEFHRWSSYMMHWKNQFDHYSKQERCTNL
UniProt P53341: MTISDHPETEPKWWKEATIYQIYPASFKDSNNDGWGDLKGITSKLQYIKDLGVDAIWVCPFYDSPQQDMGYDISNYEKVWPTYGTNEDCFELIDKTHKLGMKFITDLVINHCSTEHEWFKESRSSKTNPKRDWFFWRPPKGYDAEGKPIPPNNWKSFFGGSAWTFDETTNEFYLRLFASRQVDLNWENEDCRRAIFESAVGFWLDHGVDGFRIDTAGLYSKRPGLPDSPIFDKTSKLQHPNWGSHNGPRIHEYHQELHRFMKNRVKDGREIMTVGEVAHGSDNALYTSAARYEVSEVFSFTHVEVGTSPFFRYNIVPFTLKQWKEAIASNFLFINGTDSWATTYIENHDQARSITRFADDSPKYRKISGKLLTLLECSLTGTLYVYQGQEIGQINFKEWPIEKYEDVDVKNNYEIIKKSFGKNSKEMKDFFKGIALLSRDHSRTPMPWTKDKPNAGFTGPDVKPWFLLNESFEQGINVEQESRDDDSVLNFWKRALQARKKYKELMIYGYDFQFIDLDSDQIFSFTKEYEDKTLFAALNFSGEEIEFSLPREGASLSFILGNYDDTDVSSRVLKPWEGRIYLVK

Another assay concerns the target T2, yeast α-glucosidase (Saccharomyces cerevisiae, UniProt P53341).
T2 construct: purchased Sigma-Aldrich
The assay can be described thus: α-Glucosidase inhibitory activity. Type of assay: biochemical, Saccharomyces cervisiae. As to conditions: mean ± standard error.

Take “Quercetin-3-O-rhamnoside [Quercetin-3-O-rhamnoside (2)]”: in assay [1], the “AChE inhibitory activity IC50” value is 60.7 ± 7.9 µg·days/mL. The “α-Glucosidase inhibitory activity IC50” value on yeast α-glucosidase was 122.7 ± 1.6 a,b µg/mL.

The values are drawn from PMC6270205, “Antimicrobial and Selected In Vitro Enzyme Inhibitory Effects of Leaf Extracts, Flavonols and Indole Alkaloids Isolated from Croton menyharthii” (Molecules, 2013).
